{
  "source": "patent US11492376B2",
  "about": "“Toxoplasma gondii GRA8-derived recombinant peptides and composition for preventing or treating cancer comprising the same” (Industry—University Cooperation Foundation Hanyang …, priority 2019, dated 2022)",
  "test": "Immunogenicity: specific IgG by ELISA in immunized mice",
  "settings": "immunized BALB/C mice, OD 450 nm",
  "description": "Immunoblotting was performed with anti-PKCα, anti-ATP5A1, anti-SIRT3 or anti-actin. […] (B) The schematic diagram of a xenograft model treated with rVector (upper). HCT116-expressing ATP5A1 WT and mutant cells were subcutaneously injected into the flank of nude mice. […] Each group included 10 mice. […] (C) Humoral immune responses in BALB/C mice. The mice were immunized via each route (intravenous injection or intraperitoneal injection) every third day, and subjected to blood collection on day 40. […] The values are expressed as mean±standard deviation for absorbance (OD) at 450 nm. Each group included five mice. (D) Cytokine response for rATRAM-GRA8-M/AS in tumor-bearing mice. As described in the method section, HCT116 cells were subcutaneously injected into the flank of a BALB/c mouse. A serum cytokine level was measured on day 30 after administration. Each group included 10 mice.\nSince immunogenicity is closely related with safety and efficacy, it is one of the critical factors for development of therapeutic proteins. Therefore, by monitoring the production of antibodies against rATRAM-GRA8-M/AS in immunized mice, the immunogenicity of rATRAM-GRA8-M/AS was investigated. After three consecutive injections of rATRAM-GRA8-M/AS, a level of IgG antibody was analyzed using enzyme-linked immunosorbent assay (ELISA).",
  "data": [
    {"substance": "ovalbumin [reference compound]", "values": [
      {"measurement": "level of specific IgG antibody", "result": "significant increase"}
    ]}
  ]
}
